The values that follow are results of earlier work, collected in patent publication US7381400B2, “Injection of a radioactive dye for sentinel lymph node identification” (Board of Supervisors of Louisiana State University And …, priority 2004, dated 2008).

The conditions of this data set: about 4 to 5 cc injected into the tumor region; cited from earlier work.

`CN(C)c1ccc2nc3ccc(N(C)C)cc3[s+]c2c1.[Cl-]` [Methylene blue, 3,7-bis (dimethylamino)phenothiazine-5-ium chloride]: the reported adverse events result is recorded as “not been associated with reported adverse events”.
